This list holds what a sample rich in hits left over. Records with an inconclusive call do not appear. Activity calls are given as the source filed them. Calls come from the whole dose curve; as a rule, active = well fitted inhibition curve with a large enough effect; inconclusive = small, poorly fitted or top-dose-only effect; inactive = flat fitted curve, though single readings scatter.
Test: Nrf2 qHTS screen for inhibitors: A549 ARE-Fluc Cytotoxicity Counterscreen for Hit Validation;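 note: cells exposed to compounds for 18 to 24 hours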
Details: A549 ARE-Fluc cells; at 46.1 µM (top of the series)
Description: Nrf2 is a transcription factor that maintains cellular redox homoestasis and protects cells from xenobiotics. Nrf2 binds to the antioxidant response element (ARE) to induce gene expression of a broad spectrum of genes that encode for antioxidants. […] Finding a small molecule that act as an inhibitor of Nrf2 function would represent a novel therapeutic target that could lead to improvement in survival of patients undergoing chemo- and/or radio- therapy.
In collaboration with the Biswal laboratory, a cell based, luminescence assay (BugLite) was developed to detect the Nrf2 activity using the A549 ARE_Fluc cells (AID 504648). This assay was coupled with a fluorescence based (CellTiter Fluor) cytotoxicity assay to identify and exclude toxic compounds. […] The data herein is the result of the CellTiter Fluor assay where decrease in fluorescence signal = cytotoxicity. […]
Five uL of cell suspension was dispensed into 1536-well white TC-treated plate using the Kalypsys dispenser to achieve a density of 5000 cells/well in all columns except column 1. […] The fluorescence signal was read using the PerkinElmer ViewLux plate reader (Ex = 405 nm /Em = 525 nm) for a 3 second exposure. […] A second ViewLux read (40 sec exposure) was performed to detect the luminescence signal. Cytotoxicity was assessed through the first fluorescent read while biochemical activity against Nrf2 was measured in the luminescent read. […]
In the case of `N=C(N)c1ccc(OCCCCCOc2ccc(C(=N)N)cc2)cc1`, the activity change, negative = cytotoxicity is reported as inactive: -8.81%.

Source: PubChem BioAssay AID720523 (National Center for Advancing Translational Sciences (NCATS), 2013)
% is set by controls: 0 for no effect and ±100 for the full control effect.
